We go through one substance from patent US11806404B2, “Site specific homogeneous with KSP inhibitors” (BAYER PHARMA AKTIENGESELLSCHAFT, priority 2015, dated 2023).

The subject of this assay is respective Target-expressing cells. Kind of assay: Internalisation assay with labelled commercially available antibodies. The conditions noted are these: vs isotype control. It is filed as cell-based.

“Herceptin: "The commercially available antibodies (Cetuximab, Nimotuzumab, Herceptin)"”: the internalization result is “target-dependent internalization”.
